Measured values from ChEMBL document CHEMBL1159159.

Protein sequences, listed by entry. Tags and fused reporters are not part of them.
UniProt P08842, whole entry, looked up: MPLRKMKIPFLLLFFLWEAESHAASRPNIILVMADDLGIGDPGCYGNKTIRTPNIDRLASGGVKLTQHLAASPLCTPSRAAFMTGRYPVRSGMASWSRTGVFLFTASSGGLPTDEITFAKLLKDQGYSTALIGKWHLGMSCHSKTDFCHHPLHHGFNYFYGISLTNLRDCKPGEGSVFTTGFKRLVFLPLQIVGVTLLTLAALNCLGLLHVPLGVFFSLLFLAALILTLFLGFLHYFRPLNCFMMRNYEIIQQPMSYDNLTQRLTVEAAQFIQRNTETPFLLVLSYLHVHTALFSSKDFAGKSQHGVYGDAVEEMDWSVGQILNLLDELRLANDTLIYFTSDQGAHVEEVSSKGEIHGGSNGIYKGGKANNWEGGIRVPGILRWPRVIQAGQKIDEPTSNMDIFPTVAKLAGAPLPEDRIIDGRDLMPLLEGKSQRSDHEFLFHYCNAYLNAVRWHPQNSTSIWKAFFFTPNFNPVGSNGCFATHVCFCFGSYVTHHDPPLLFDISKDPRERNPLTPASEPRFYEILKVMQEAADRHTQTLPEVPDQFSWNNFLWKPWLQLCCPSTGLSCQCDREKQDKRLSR

Columns and labels:
[1] = biological target: T1, Steryl-sulfatase (Homo sapiens, UniProt P08842); test: Binding affinity against estrone sulfatase in breast tumor preparations
[2] = biological target: T1, Steryl-sulfatase; test: Binding affinity against estrone sulfatase in placental preparation
[3] = biological target: T1, Steryl-sulfatase; test: Inhibition against estrone sulfatase in placental preparation

Q: `C[C@]12CC[C@@H]3c4ccc(O[P@](C)(=O)S)cc4CC[C@H]3[C@@H]1CCC2=O` was tested. Which Ki [1] did it give?
A: The Ki was 33 µM.

Q: What about the Ki [2] of the same compound?
A: The Ki was 15 µM.

Q: And the IC50 [3]?
A: The IC50 was 36 µM.
